Source: patent publication US11299472B2, “Fumarate salt of (R)-3-(1-(2,3-dichloro-4-(pyrazin-2-yl)phenyl)-2,2,2- trifluoroethyl)-1-methyl-1-(1-methylpiperidin-4-yl) urea, methods of preparation, and uses thereof” (Helsinn Healthcare SA, priority 2017, dated 2022)

Amino acid sequences for entries named in this document (tags omitted).
UniProt Q92847, whole entry: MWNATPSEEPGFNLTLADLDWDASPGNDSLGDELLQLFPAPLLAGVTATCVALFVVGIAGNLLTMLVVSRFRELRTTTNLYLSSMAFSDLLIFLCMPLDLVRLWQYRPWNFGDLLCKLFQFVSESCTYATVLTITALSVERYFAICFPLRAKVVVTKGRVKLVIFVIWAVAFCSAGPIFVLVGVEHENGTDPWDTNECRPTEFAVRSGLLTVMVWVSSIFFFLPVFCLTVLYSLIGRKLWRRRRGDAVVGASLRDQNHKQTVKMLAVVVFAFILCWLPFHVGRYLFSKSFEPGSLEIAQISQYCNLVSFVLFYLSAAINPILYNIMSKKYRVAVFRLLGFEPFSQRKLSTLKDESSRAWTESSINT

Assays:
human GHSR1a receptor [1] = biological target: T1, human GHSR1a receptor (Homo sapiens, UniProt Q92847); assay: Antagonist FLIPR assay in HEK293 cells; conditions: read-out: antagonist activity on GHSR1a, IC50, HEK293 cells expressing human GHSR1a, in duplicate, HM04 tested as fumarate salt
Protocol: The compounds were diluted with 100% DMSO to make 30 mM stock. On the test day, serial dilutions were prepared starting from the stock solution. For the FLIPR assay: 1) 8 μl of DMSO was added to 2 μl of compound stock solution (30 mM) to produce 10 μl of 6 mM solution; half-fold serial dilutions of the 6 mM solution were produced to generate ten doses; 2) test solutions were obtained by diluting the stock solutions 1/40 in assay buffer (DMSO concentration 2.5%). […]
(§1) For the agonist and antagonist activity study, HEK293 cells stably expressing human GHSR1a receptor were used in a (FLIPR) assay. […] Fluorescence signal was detected with FLIPR at room temperature according to standard settings for 10 minutes before cells were exposed to 10 μl of 5× working concentrations of agonists (compound added by FLIPR). The fluorescence signal was detected in the subsequent 3 minutes (antagonist mode).
Data were reported as relative light units (RLUs) and analyzed using GraphPad Software Inc. version 6. The half maximal inhibitory concentration (IC50) measured for HM04 and R011 were calculated by non-linear regression analysis.

human GHSR1a receptor [2] = biological target: T1, human GHSR1a receptor; assay: Agonist FLIPR assay in HEK293 cells; conditions: FLIPR agonist mode, concentrations up to 10 μM
Protocol: (§2) The compounds were diluted with 100% DMSO to make 30 mM stock. On the test day, serial dilutions were prepared starting from the stock solution. For the FLIPR assay: 1) 8 μl of DMSO was added to 2 μl of compound stock solution (30 mM) to produce 10 μl of 6 mM solution; half-fold serial dilutions of the 6 mM solution were produced to generate ten doses; 2) test solutions were obtained by diluting the stock solutions 1/40 in assay buffer (DMSO concentration 2.5%). For the IP-1 assay: 1) 29 μl of DMSO was added to 1 μl of compound stock solution (30 mM) to produce 30 μl of 1 mM solution; half-fold serial dilutions of the 1 mM solution were produced to generate 10 doses; 2) test solutions were obtained by diluting the stock solutions 1/100 in assay buffer (DMSO final concentration 1%).
as §1

human GHSR1a receptor [3] = biological target: T1, human GHSR1a receptor; assay: Inositol 1 phosphate (IP-1) inverse agonist assay; conditions: IP-1 assay
Protocol: as §2
For the inverse agonist activity study, the same procedure described above was followed up to the day of the test. On the test day, the medium was removed by centrifuging at 700 rpm for 30 seconds and 20 μl/well of assay buffer containing the HM04 or R011 was added. The assay plates were incubated at 37° C. in the dark for 1 hour. IP1-d2 (5 μl) and AB-Cryp (5 μl) were sequentially added to all wells using multidrop Combi. The plate was incubated at room temperature for 1 hour and read on EnVision at 620 nm and 665 nm.

[4] = test system: ghrelin-induced increase of GH; assay: Ghrelin-induced increase of growth hormone in rats; conditions: 10 mg/kg R011 i.p. 30 minutes before 15 μg/kg ghrelin i.v., 15 minutes after ghrelin
Protocol: Rats were divided into four groups: 1) 1 ml/kg saline plus 10 ml/kg 0.5% CMC p.o. (n=6); 2) 15 μg/kg ghrelin i.v. plus 10 ml/kg 0.5% CMC p.o. (n=6); 3) 30 mg/kg HM04 fumarate salt p.o. 2 hours before 15 μg/kg ghrelin i.v. (n=6); 4) 10 mg/kg ghrelin antagonist R011 i.p. 30 minutes before 15 μg/kg ghrelin i.v. (n=6). Blood was collected as 100 μl samples at time 0 and at 15 minutes after ghrelin injection. Rats were anesthetized with 64.8 mg/kg sodium pentobarbital. A catheter filled with heparinized saline solution was inserted in the left femoral artery for blood collection and fitted with an extension tube, 1-mL sampling syringe, and a 3-way cock to allow excess blood to return.
Plasma levels of growth hormone (GH) were determined using Rat GH ELISA (Millipore, Catalog No. EZRMGH-45K). Measurements were performed in duplicate. GH AUC 0-15 min was calculated using the trapezoidal method. One-way and two-way ANOVA test was used to compare differences between groups. All values are presented as mean±SEM. One-way ANOVA was performed followed by Turkey's post hoc test where significance was indicated by p values<0.05 or p values<0.01.

Structure (SMILES): CCCCNC(=O)N1CCc2c([nH]c3ccc(OC)cc23)C12CCN(CCOc1ccccc1)C2 (stereo not shown)
- IC50 (human GHSR1a receptor [1]): 343 nM
- agonist activity (human GHSR1a receptor [2]): No agonist activity was observed
- inverse agonist activity (human GHSR1a receptor [3]): did not show a clear significant inverse agonist activity
- inhibition of ghrelin-induced increase of GH [4]: 78%
